This note sets out measurements from US20120220665A1, “Inhibiting Neurotransmitter Reuptake” (MAYO FOUNDATION FOR MEDICAL EDUCATION AND RESEARCH, priority 2009, published 2012).

SMILES strings stand for the structures.

In this assay the test system is hSERT (S), hNET (N), hDAT (D). As to the kind of experiment: Comparison of binding potency across the three human transporters. To be noted: order by KD.

Regarding `Fc1ccc([C@@H]2CCNC[C@H]2COc2ccc3c(c2)OCO3)cc1` [Paroxetine, reference compound], the “Potency (rank order of transporter binding)” value is listed as “S > N > D”.
Regarding `CN[C@H]1CC[C@@H](c2ccc(Cl)c(Cl)c2)c2ccccc21` [Sertraline, reference compound], the “Potency (rank order of transporter binding)” value is recorded as “S > D > N”.
